PubChem BioAssay AID1845 (The Scripps Research Institute Molecular Screening Center, 2009)
“And” between values parts separate entries of the source, which are not always exact repeats. Equal values may be shown once. Only a part is listed here, and it is no random draw. The source made the active and inactive calls. No stated cut-off is given here; in the data, active means inhibition above about 37%; inactive means the rest.

Experiment: DNA intercalator displacement agents – biochemical, FID fluorescence, artefact control for HCV NS3 helicase inhibitor project, primary screen (AID 1845);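 further: 0% = vehicle and 100% = reference compound; higher means more ethidium bromide displaced from hairpin DNA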
Conditions: DNA fluorescent intercalator displacement, at 7.9 µM, hits give high values
For `Cc1ccc(NP(=O)(Oc2ccccc2)Oc2ccccc2)nc1`, the inhibition was inactive: -8.32%.
In the case of `O=[N+]([O-])c1cc([N+](=O)[O-])c(CCNc2ccccc2)c([N+](=O)[O-])c1`, the inhibition is reported as inactive: 0.24%.
In the case of `CCc1nc2c(n1)c1c(non1O)c1c2no[n+]1[O-]`, the inhibition is reported as inactive: 1.97%.
In the case of `CC(=O)N1C2C3N(C(C)=O)C1C1N(C(C)=O)C(C(N1C(C)=O)N3C(C)=O)N2C(C)=O`, the inhibition is reported as inactive: 0%.
In the case of `O=[N+]([O-])c1cccc2n[nH]nc12`, the inhibition is reported as inactive: -2.22%.
In the case of `COc1ccc(C2=NCC(CBr)S2)cc1` (stereo not drawn), the inhibition is reported as inactive: 5.39%.
For `CC1CCN(C(=O)Oc2c(Cl)cc(Cl)c3cccnc23)CC1`, the inhibition was inactive: -28.9%.
With `CC(C)=N/N=C(\N)N[N+](=O)[O-]` the inhibition was inactive: -3.6%.
With `CN(C)C(=O)OCCc1n(C)cc[n+]1C` the inhibition was inactive: -0.08%.
For `CCN(/C(=N/P(=O)(N1CCOCC1)N1CCOCC1)N1CCOCC1)c1ccc(OC)cc1`, the inhibition was inactive: -32.9%.
For `Nc1ccc([As](=O)(O)c2ccc(N)cc2)cc1`, the inhibition was inactive: 0.15%.
With `C[N+]1=C2C=CC=CC=C2SC12C([N+](=O)[O-])=CC([N+](=O)[O-])=C[C-]2[N+](=O)[O-]` (stereo not drawn) the inhibition was inactive: -4.24%.
For `O=C(Nc1cc([As](=O)(O)O)ccc1O)c1ccccc1`, the inhibition was inactive: 1.41%.
With `O=C(O)CNc1ccc([As](=O)(O)O)cc1` the inhibition was inactive: -0.18%.
For `O=[N+]([O-])c1cccc(NC2=NCC(CBr)S2)c1` (stereo not drawn), the inhibition was inactive: 4.34%.
For `O=[N+]([O-])c1ncn(CCn2ncnc2[N+](=O)[O-])n1`, the inhibition was inactive: 12.7%.
For `CC(C)(C)C(=O)NC(Sc1ccncn1)C(Cl)(Cl)Cl` (stereo not drawn), the inhibition was inactive: -2.69%.
For `CCOP(=O)(Nc1ccccc1)OCC`, the inhibition was inactive: -0.12% and inactive: -0.94%.
For `Cc1cc(SC(NC(=O)c2ccc(F)cc2)C(Cl)(Cl)Cl)ncn1` (stereo not drawn), the inhibition was inactive: -0.1%.
In the case of `Cc1ccc(NP(=O)(Oc2ccccc2F)Oc2ccccc2F)nc1`, the inhibition is reported as inactive: -3.95%.
In the case of `O=P(Nc1nc2ccc(Cl)cc2s1)(c1ccccc1)c1ccccc1`, the inhibition is reported as inactive: -25.4%.
For `O=C(O)c1ccccc1[As](=O)(O)O`, the inhibition was inactive: -3.4%.
For `CC(=O)Nc1ccc([As](=O)(O)O)cc1`, the inhibition was inactive: -0.3%.
With `Nc1cccc2ccc([As](=O)(O)O)cc12` the inhibition was inactive: -6.72%.
For `CCN(N=Nc1nonc1N)c1nonc1N`, the inhibition was inactive: 3.03%.
In the case of `O=[N+]([O-])c1cc([N+](=O)[O-])c(CCN2CCOCC2)c([N+](=O)[O-])c1`, the inhibition is reported as inactive: 5.06%.
For `Clc1ccc(Cl)c(NC2=NCC(CBr)S2)c1` (stereo not drawn), the inhibition was inactive: 3.19%.
In the case of `CN1CCCC(OC(=O)C(c2ccccc2)c2ccccc2)C1` (stereo not drawn), the inhibition is reported as inactive: 6.6%.
